Patent US7759375B2, “Epothilones C, D, E, and F, preparation and compositions” (priority 1996, dated 2010)

Chains of the proteins cited; added tags and fusions are not shown.
UniProt P02554, whole entry: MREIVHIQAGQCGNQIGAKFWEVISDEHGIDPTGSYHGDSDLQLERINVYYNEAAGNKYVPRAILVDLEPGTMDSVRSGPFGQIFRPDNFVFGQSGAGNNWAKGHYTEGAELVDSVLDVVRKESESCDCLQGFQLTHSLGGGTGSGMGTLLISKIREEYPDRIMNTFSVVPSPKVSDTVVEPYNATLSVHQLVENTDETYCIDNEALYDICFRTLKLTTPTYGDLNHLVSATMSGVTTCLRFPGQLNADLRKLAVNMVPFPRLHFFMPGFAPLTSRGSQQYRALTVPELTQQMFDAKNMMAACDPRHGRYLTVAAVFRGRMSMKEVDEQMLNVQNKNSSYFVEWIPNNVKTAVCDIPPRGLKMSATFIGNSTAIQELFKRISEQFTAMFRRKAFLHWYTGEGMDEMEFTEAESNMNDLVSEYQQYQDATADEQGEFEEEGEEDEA

Biological target: T1, purified tubulin from pigs' brain (Sus scrofa, UniProt P02554)
T1 construct: purified tubulin from pigs' brain; from tissue; host or cells: pig brain
Assay type: biochemical, pig
Conditions: 0.9 mg of tubulin/ml, 1 μM sample concentration
Experimental: The epothilones according to the invention were tested with cell cultures (Table 2) and for promotion of polymerization (Table 3).
The polymerization test is an in vitro test using purified tubulin from pigs' brain. Evaluation is carried out photometrically.

C/C(=C\c1csc(CO)n1)[C@@H]1C[C@@H]2O[C@]2(C)CCC[C@H](C)[C@H](O)[C@@H](C)C(=O)C(C)(C)[C@@H](O)CC(=O)O1 [Epothilone F]
Time up to the half-maximal polymerization, Agent [%] (relative activity in % of the control) (control = 100, lowest values indicate the best activity): 26% | Time up to the half-maximal polymerization of the control, Agent [s] (average of experiments w-z, control 190 s): 50 s | Time up to the half-maximal polymerization of the control, measurement w (independent experiment w): 80 s | Time up to the half-maximal polymerization of the control, measurement x (independent experiment x): 40 s | Time up to the half-maximal polymerization of the control, measurement y (independent experiment y): 30 s | Time up to the half-maximal polymerization of the control, measurement z (independent experiment z): 50 s
